Reference: patent US20250059204A1, “FUSED BENZOISOXAZOLYL COMPOUNDS AS KAT6A INHIBITORS” (Aurigene Oncology Limited, priority 2021, published 2025)

Chains of the proteins cited; added tags and fusions are not shown. Residues count along the entry.
UniProt Q92794, 507-778 limits assumed: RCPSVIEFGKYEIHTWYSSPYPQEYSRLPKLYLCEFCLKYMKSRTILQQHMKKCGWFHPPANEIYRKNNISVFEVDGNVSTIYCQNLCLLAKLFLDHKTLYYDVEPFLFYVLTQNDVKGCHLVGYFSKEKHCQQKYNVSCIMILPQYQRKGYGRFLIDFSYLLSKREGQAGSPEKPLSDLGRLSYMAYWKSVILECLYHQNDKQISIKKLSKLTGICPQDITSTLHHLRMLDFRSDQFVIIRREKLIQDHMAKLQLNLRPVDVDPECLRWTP

Molecular target: human-KAT6A (MYST domain 507-778 aa) (Homo sapiens (Human), UniProt Q92794)
Assay: KAT6A biochemical assay (TR-FRET)
Details: read-out: KAT6A IC50, H4 peptide 200 nM, acetyl-CoA 600 nM

COc1ccccc1S(=O)(=O)Nc1noc2cc(Cn3cncn3)c3c(c12)OCC3
IC50: 61 nM
